In this test the target is Delta-type opioid receptor (Rattus norvegicus) (UniProt P33533). Put plainly: Agonist activity at rat delta opioid receptor expressed in C6 cells assessed as stimulation of [35S]GTP-gamma-S binding relative to BW373U86. The class given is functional, cell-based. In general terms: GTPγS is a poorly hydrolysed GTP analogue; its binding reports G protein activation.

Chains of the proteins cited; added tags and fusions are not shown.
UniProt P33533, whole entry: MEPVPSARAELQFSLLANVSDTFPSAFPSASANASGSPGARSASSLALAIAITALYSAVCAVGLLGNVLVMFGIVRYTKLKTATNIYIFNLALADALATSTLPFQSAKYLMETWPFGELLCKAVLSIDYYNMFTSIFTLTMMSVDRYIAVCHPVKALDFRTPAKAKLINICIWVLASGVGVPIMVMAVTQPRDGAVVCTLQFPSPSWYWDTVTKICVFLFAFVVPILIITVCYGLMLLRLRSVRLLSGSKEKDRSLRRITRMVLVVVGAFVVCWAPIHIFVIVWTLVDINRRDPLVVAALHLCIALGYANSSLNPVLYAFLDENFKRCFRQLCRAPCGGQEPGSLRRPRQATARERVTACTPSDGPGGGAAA

As for `CO[C@]12CC[C@@]3(C[C@@H]1C(C)(C)O)[C@H]1Cc4ccc(O)c5c4[C@@]3(CCN1CC1CC1)[C@H]2O5`, the Activity was 0.08.

The values are drawn from ChEMBL document CHEMBL1140619.
